Laboratory results taken from patent publication US20160264639A1.

Target: FSHR (FSH receptor of CHO-FSHR cells)
Assay: cell-based or functional assay

- potency in cAMP-based in vitro bioassay (CHO-FSHR cells), fold against controls: 3 to 4 fold
Substance: bFSH-5R analog (bovine FSH with 5R substitutions K15R+K17R+E18R+K2OR+K24R in the alpha subunit) (from UniProt P04837 21-129) (ligand)
